Data taken from US7312225B2, “Macrocyclic pyrimidines, their production and use as pharmaceutical agents” (Bayer Schering Pharma AG, priority 2002, dated 2007).

How the values were obtained:
CDK2/CycE = CDK2/CycE (Homo sapiens, UniProt P24941); assay: CDK2/CycE kinase assay; assay type: biochemical; conditions: read-out: Inhibition IC50 CDK2/CycE; Table II
MCF7 = assay: Proliferation assay MCF7; conditions: read-out: Proliferation IC50 MCF7; Table II; 4 days incubation, crystal violet

pIC50 (CDK2/CycE)	pIC50 (MCF7)	SMILES
5.15	4.52	O=C1NCCCCCNc2nc(ncc2Br)Nc2cccc1c2
< 5.00	–	O=C1NCCCCCNc2ccnc(n2)Nc2cccc1c2

pIC50: −log10 of the molar value.
